Results as given in paper PMC12147355, “Targeted destruction of follicle stimulating hormone receptor-positive cancer cells in vitro and in vivo by a lytic peptide Phor21-FSHβ conjugate” (Molecular Medicine, 2025).

Tests used:
HEK293-FSHR cells = experiment: CyQUANT cell proliferation assay, HEK293-FSHR cells; type: cell-based, human; settings: rhFSH 10, 100, or 1000 IU/L, 48 h; Fig. 1D
Experimental: Cell proliferation was determined using a CyQUANT Cell Proliferation Assay (C7026, Life Technologies, Thermo Fisher Scientific). Prior to the experiments, HEK-293, HEK293-FSHR, and LNCaP cells were seeded in 96-well plates (7000 cells/well). After overnight incubation in the culture medium, the cells were starved for 4 h in basal non-supplemented DMEM/F12. The cells were then treated for 48 h with rhFSH (10, 100, or 1000 IU/L) or cetrorelix (CTX) (1, 5, 10, or 20 µM; Sigma-Aldrich), and 2.5% FSC was used as a positive control. After incubation, the medium was removed, and the plates with cells were frozen at −80 °C overnight. After thawing at room temperature (RT), 200 µl of CyQUANT GR dye/cell lysis buffer was added to each well and incubated for 5 min at room temperature (RT) in the dark. The fluorescence was read using a WALLAC Victor 2 1420 spectrophotometer (Perkin Elmer, Waltham, Massachusetts, USA) with ~ 480 nm excitation and ~ 520 nm emission maxima. The results were subtracted from a standard curve made from bacteriophage λ DNA (ranging from 50 pg/ml to 1.0 µg/ml) in CyQUANT GR/cell lysis buffer and are presented as absolute values.

FSHR = molecular target: T1, FSHR (Homo sapiens, UniProt P23945); experiment: rhFSH-stimulated cAMP production (CANDLES assay); type: cell-based; settings: 10, 100, or 1000 IU/L rhFSH, Fig. 1C
T1 construct: expressed in transfected cells; Hanyaloglu
T1 sequence (P23945 18-695): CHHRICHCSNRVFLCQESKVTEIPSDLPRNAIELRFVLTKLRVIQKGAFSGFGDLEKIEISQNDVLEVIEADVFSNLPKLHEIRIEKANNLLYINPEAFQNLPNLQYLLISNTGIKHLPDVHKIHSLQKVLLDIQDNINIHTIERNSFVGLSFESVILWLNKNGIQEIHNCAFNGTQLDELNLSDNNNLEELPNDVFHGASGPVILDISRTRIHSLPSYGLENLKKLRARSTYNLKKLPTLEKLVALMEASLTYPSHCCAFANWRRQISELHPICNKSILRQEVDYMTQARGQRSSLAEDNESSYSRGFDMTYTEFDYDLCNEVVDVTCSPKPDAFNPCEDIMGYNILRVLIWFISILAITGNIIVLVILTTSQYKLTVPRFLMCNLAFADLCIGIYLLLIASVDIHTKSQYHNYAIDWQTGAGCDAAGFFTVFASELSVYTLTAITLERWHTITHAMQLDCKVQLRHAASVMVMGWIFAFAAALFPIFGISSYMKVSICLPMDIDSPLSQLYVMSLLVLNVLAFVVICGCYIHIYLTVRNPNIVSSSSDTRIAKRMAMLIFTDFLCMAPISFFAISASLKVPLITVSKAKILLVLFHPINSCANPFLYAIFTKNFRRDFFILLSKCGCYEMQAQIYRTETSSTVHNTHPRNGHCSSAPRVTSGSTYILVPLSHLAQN
Experimental: The kinetics of rhFSH-stimulated intracellular cAMP production in HEK293-FSHR and HEK-293 cells were determined via Cyclic AMP iNdirect detection via light emission from sensor cells (CANDLES) assay, as described previously (Trehan et al. [2014]). The cells were co-cultured with GS-293 sensor cells in 12-well plates in complete DMEM/F12 medium for 24 h. Prior to the experiment, complete DMEM was replaced with freshly prepared assay medium containing a 1:1 ratio of DMEM/F12 and CO2-independent medium supplemented with 0.1% BSA (Gibco, Thermo Fisher Scientific, Waltham, Massachusetts, USA), 2% GloSensor cAMP reagent (Promega), and 100 µM 3-isobutyl-1-methylxanthine (IBMX; Sigma). The cells were equilibrated for 45 min at RT in the dark at a constant temperature of 25 °C in a plate reader (Victor, Perkin-Elmer-Wallac), and luminescence was measured for 5 min to obtain a basal measurement. Luminescence from individual wells was measured for 5 s for up to 1 h.
Endpoint extracellular cAMP production in PC-3, DU145, LNCaP, KGN, CaOV-3, OVCaR-3, MCF-7, HEK293-FSHR, and HEK-293 cells was determined according to the standard radioimmunoassay method using iodinated succinyl-cAMP (Harper and Brooker [1975]). The cells were seeded onto 24-well plates (80000 cells/well) and grown overnight in culture medium. […]

- rhFSH-stimulated cAMP production in HEK293-FSHR cells (FSHR): dose-dependent
Substance: rhFSH: recombinant human follicle-stimulating hormone
- HEK293-FSHR cell growth (proliferation) under rhFSH stimulation (HEK293-FSHR cells): did not promote
